According to US11304930B2, “Ammonium salts of 3-(3,5-dibromo-4-hydroxybenzyliden)-5-indo-1,3-dihydroindol-2-one and uses thereof” (Metagone Biotech Inc., priority 2018, dated 2022):
Like-named read-outs stand apart in the source and are kept apart here.

Assay: Water solubility of GW5074 salts

Ethylenediamine salt of GW5075
Solubility: 1 mg/100 mL
Solubility (listed as ethylenediamine salt of GW5047): 1.0 mg/100 mL
